How the values were obtained:
[1] = molecular target: MMP-13 (Homo sapiens, UniProt P45452); assay: MMP inhibition assay, fluorogenic substrate FS-6; details: read-out: IC50 MMP-13; substrate FS-6 (Mca-Lys-Pro-Leu-Gly-Leu-Dpa-Ala-Arg-NH2), enzyme and inhibitor incubated 4 h at 25° C., triplicate
Protocol: (§1) As reported therein, the inhibitory activity of the compounds of the invention was evaluated on the known fluorogenic substrate (Mca-Lys-Pro-Leu-Gly-Leu-Dpa-Ala-Arg-NH2), shortly referred to as FS-6 (see, as a reference, U. Neumann, Analytical Biochem. 2004, 328, 166-173).
(§2) Recombinant human pro-MMP-2 was supplied by Prof. Gillian Murphy (Department of Oncology, University of Cambridge, UK), while pro-MMP-13 and pro-MMP-14 were purchased from Calbiochem. Proenzymes were activated immediately prior to use with p-aminophenylmercuric acetate (APMA: 2 mM for 1 h at 37° C. for pro-MMP-2 and 1 mM for 30 min at 37° C. for pro-MMP-13). […] After the addition of 200 μM solution of the fluorogenic substrate Mca-Lys-Pro-Leu-Gly-Leu-Dpa-Ala-Arg-NH2 (Bachem) (see, for a reference, Neumann, U.; Kubota, H.; Frei, K.; Ganu, V.; Leppert, D. Anal. Biochem. 2004, 328, 166) for all of the enzymes in DMSO (final concentration 2 μM), the hydrolysis was monitored every 15 sec. for 20 min recording the increase in fluorescence (λex=325 nm, λem=395 nm) using a Molecular Device SpectraMax Gemini XS plate reader.
(§3) The assays were performed in triplicate, in a total volume of 200 μl per well, in 96-well microtitre plates (Corning, black, NBS). […] Percent of inhibition was calculated from control reactions without the inhibitor. […] Results were analyzed using SoftMax Pro software and GraFit software.

Protein sequences, listed by entry. Tags and fused reporters are not part of them. Residues count along the entry.
UniProt P08253, 110-660 limits assumed: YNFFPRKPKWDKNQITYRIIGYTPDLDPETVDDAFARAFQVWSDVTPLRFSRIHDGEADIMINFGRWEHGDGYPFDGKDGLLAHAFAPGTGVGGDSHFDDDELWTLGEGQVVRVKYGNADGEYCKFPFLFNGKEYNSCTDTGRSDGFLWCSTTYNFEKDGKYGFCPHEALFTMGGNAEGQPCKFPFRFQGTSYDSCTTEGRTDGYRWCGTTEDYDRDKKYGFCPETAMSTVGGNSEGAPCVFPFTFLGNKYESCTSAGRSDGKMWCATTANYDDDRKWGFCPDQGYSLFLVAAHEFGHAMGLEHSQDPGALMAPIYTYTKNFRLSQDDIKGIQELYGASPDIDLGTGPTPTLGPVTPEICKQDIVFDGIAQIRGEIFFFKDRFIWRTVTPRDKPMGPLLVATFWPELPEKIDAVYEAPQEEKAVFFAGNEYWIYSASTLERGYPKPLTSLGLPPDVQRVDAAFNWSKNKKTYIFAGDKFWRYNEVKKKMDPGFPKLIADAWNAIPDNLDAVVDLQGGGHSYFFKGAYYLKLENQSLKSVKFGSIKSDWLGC

[2] = molecular target: MMP-2 (Homo sapiens, UniProt P08253); assay: MMP inhibition assay, fluorogenic substrate FS-6; details: read-out: IC50 MMP-2; substrate FS-6 (Mca-Lys-Pro-Leu-Gly-Leu-Dpa-Ala-Arg-NH2), enzyme and inhibitor incubated 4 h at 25° C., triplicate
Protocol: as §1, §2, §3

[3] = molecular target: MMP-14 (Homo sapiens, UniProt P50281); details: read-out: IC50 MMP-14; isolated enzymes, substrate FS-1 (Mca-Pro-Leu-Gly-Leu-Dpa-Ala-Arg-NH2), prior art (Rossello et al.); cited from earlier work

In the case of `CC(C)ON([C@H](CCNC(=O)CCCNC(=O)c1cccc(C(=O)NCCCC(=O)NCC[C@H](C(=O)NO)N(OC(C)C)S(=O)(=O)c2ccc(-c3ccccc3)cc2)c1)C(=O)NO)S(=O)(=O)c1ccc(-c2ccccc2)cc1`, the IC50 [1] is listed as 14.7 nM, the IC50 [2] is listed as 19.8 nM and the IC50 [3] is listed as 34 nM.
